Test results published in US12030872B2, “N-heteroaryl indazole derivatives as LRRK2 inhibitors, pharmaceutical compositions, and uses thereof” (Merck Sharp & Dohme LLC, priority 2018, dated 2024).

Chains of the proteins cited; added tags and fusions are not shown. Residues count along the entry.
UniProt Q5S007, 970-2527 G2019S: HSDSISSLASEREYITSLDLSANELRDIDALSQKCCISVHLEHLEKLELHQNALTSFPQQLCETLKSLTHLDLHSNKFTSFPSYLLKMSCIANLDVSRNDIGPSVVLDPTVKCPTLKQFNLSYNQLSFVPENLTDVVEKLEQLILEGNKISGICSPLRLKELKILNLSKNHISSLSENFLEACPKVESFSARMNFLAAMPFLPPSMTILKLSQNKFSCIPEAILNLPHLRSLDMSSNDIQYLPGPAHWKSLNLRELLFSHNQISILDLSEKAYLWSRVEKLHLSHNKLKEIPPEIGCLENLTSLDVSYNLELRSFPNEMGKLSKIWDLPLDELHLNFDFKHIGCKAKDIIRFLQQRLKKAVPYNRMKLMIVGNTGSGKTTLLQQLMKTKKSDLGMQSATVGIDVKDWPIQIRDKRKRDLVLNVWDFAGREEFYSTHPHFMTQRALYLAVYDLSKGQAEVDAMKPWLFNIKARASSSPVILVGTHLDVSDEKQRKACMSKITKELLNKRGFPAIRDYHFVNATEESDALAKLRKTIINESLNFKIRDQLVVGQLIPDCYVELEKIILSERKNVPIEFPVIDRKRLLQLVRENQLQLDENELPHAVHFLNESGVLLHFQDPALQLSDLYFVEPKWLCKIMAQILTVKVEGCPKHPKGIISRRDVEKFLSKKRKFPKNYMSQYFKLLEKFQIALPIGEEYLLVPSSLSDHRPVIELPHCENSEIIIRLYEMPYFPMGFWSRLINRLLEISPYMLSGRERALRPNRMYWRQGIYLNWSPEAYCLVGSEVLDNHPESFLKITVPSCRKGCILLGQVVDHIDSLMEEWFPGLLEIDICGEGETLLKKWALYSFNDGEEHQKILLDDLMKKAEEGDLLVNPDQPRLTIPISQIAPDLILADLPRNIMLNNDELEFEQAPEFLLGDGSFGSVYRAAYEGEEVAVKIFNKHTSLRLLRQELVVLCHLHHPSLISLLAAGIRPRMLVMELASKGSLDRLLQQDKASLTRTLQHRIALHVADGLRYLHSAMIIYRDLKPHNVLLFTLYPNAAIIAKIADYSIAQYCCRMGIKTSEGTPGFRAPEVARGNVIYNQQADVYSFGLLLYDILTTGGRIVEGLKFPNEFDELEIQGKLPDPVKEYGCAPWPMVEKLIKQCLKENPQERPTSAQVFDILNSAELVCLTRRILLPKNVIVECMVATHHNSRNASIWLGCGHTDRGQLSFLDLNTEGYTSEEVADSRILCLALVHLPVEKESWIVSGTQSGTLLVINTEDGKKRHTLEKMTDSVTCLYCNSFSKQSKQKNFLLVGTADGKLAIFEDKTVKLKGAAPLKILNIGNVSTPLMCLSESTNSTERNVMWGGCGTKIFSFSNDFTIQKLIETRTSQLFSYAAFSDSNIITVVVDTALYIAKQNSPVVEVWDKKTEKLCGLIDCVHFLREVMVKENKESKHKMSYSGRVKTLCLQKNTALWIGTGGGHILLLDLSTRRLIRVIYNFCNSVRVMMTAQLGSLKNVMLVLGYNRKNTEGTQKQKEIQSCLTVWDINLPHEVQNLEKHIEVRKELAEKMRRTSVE

Molecular target: GST-tagged truncated human mutant G2019S LRRK2 (Homo sapiens (Human), UniProt Q5S007, G2019S)
Assay: LRRK2 G2019S Km ATP LanthaScreen Assay
Details: LRRKtide substrate, mean IC50 values
[1] = read-out: LRRK2 IC50, G2019S LRRK2, 134 μM ATP (Km ATP)
[2] = LRRK2 IC50, G2019S LRRK2, 134 μM ATP (Km ATP)

Row | Structure (SMILES) | IC50 [2] [nM] | IC50 [1] [nM]
1 | Clc1cc2cnn(-c3cnn(C4CCC4)c3)c2cc1C1CCN(C2COC2)CC1 [Example 2.8] |  | 0.9
2 | Cn1cc(-n2ncc3cc(Cl)c(C4CCN(CCO)CC4)cc32)cn1 [Example 16.3] |  | 3.7
3 | Clc1cc2cnn(-c3cnn(C4CC4)n3)c2cc1C1CCN(C2COC2)CC1 [Example 3.3, 5-chloro-1-(2-cyclopropyl-2H-1,2,3-triazol-4-yl)-6-(1-(oxetan-3-yl)piperidin-4-yl)-1H-indazole] | 9.1 | 
4 | Cc1cc(-n2ncc3cc(Cl)c([C@@H]4CCN(C)C[C@H]4F)cc32)sn1 (single isomer, unassigned) [Example 19.8-1] | 8.3 | 
5 | Cn1cc(-n2ncc3cc(Cl)c(C4CCN(C5COC5)CC4F)cc32)cn1 (single isomer, unassigned) [Example 20.2-2, (R,R or S,S)-5-chloro-6-(3-fluoro-1-(oxetan-3-yl)piperidin-4-yl)-1-(1-methyl-1H-pyrazol-4-yl)-1H-indazole] |  | 5.8
6 | CC1(N2CC[C@@H](c3cc4c(cnn4-c4cnn(C56CC(C5)C6)c4)cc3Cl)[C@H](F)C2)COC1 (single isomer, unassigned) [Example 36.2, (R,R or S,S)-1-(1-(bicyclo[1.1.1]pentan-1-yl)-1H-pyrazol-4-yl)-5-chloro-6-(3-fluoro-1-(3-methyloxetan-3-yl)piperidin-4-yl)-1H-indazole] |  | < 0.625
7 | CC1(N2CCC(c3cc4c(cnn4-c4cnn(C5CC5)c4)cc3C#N)CC2)COC1 [Example 12.3, 1-(1-cyclopropyl-1H-pyrazol-4-yl)-6-(1-(3-methyloxetan-3-yl)piperidin-4-yl)-1H-indazole-5-carbonitrile] | < 0.625 | 
8 | Cc1cc2cnn(-c3cnn(C)c3)c2cc1C1CCN(C)C[C@H]1F (single isomer, unassigned) [Example 21.6-1, (R,R or S,S)-6-(3-fluoro-1-methylpiperidin-4-yl)-5-methyl-1-(1-methyl-1H-pyrazol-4-yl)-1H-indazole] |  | 13.7
9 | Cc1cnc(-n2ncc3ccc(C4(C#N)CC45CC5)cc32)o1 (stereo not shown) [Example 1.6] |  | 57.6
10 | CC1(N2CCC(c3cc4c(cnn4-c4cnn(CC(F)(F)F)c4)cc3Cl)CC2)COC1 [Example 11.3] |  | 1.3
11 | CNC(=O)n1cc(-n2ncc3cc(Cl)c(C4CCN(C5(C)COC5)CC4)cc32)cn1 [Example 8.1, 4-(5-chloro-6-(1-(3-methyloxetan-3-yl)piperidin-4-yl)-1H-indazol-1-yl)-N-methyl-1H-pyrazole-1-carboxamide] | 2.9 | 
12 | Cn1cc(-n2ncc3cc(Cl)c(C4CCN(CC(F)(F)F)CC4)cc32)cn1 [Example 18.3] |  | 324
13 | Cc1cc(-n2ncc3cc(Cl)c([C@@H]4CCN(C)C[C@H]4F)cc32)sn1 [Example 19.8-2] |  | 5.9
14 | N#Cc1cc2cnn(-c3cnn(C4CC4)c3)c2cc1C1CCN(C2COC2)CC1 [Example 12.2, 1-(1-cyclopropyl-1H-pyrazol-4-yl)-6-(1-(oxetan-3-yl)piperidin-4-yl)-1H-indazole-5-carbonitrile] | 0.8 | 
15 | COC(=O)n1cc(-n2ncc3cc(Cl)c(C4CCN(C5COC5)CC4)cc32)cn1 [Example 5.2] |  | 1.4
16 | N#CC1(c2ccc3cnn(-c4cnn(-c5ccccc5)c4)c3c2)CC12CC2 (stereo not shown) [Example 1.2] |  | 19.9
17 | CC1(N2CCC(c3cc4c(cnn4-c4cnn(C5(C)CC5)c4)cc3Cl)CC2)COC1 [Example 7.7] |  | 11.4

Row | Structure (SMILES) | IC50 [2] [nM] | IC50 [1] [nM]
18 | Cn1cc(-n2ncc3cc(C#N)c(C4CCN(C5(C)COC5)CC4)cc32)cn1 [Example 12.1, 1-(1-methyl-1H-pyrazol-4-yl)-6-(1-(3-methyloxetan-3-yl)piperidin-4-yl)-1H-indazole-5-carbonitrile] | 6.3 | 
19 | COCCN1CCC(c2cc3c(cnn3-c3cnn(C)c3)cc2Cl)CC1 [Example 18.4] |  | 11.3
20 | O=S1(=O)CC(N2CCC(c3cc4c(cnn4-c4cnn(C56CC(C5)C6)c4)cc3Cl)C(F)C2)C1 (single isomer, unassigned) [Example 39.3, (R,R or S,S)-3-(4-(1-(1-(bicyclo[1.1.1]pentan-1-yl)-1H-pyrazol-4-yl)-5-chloro-1H-indazol-6-yl)-3-fluoropiperidin-1-yl)thietane 1,1-dioxide] |  | < 0.625
21 | CC1(N2CCC(c3cc4c(cnn4-c4cnn(C5CC5)c4)cc3Cl)CC2)COC[C@H]1O (single isomer, unassigned) [Example 41.6, (R,R or S,S)-4-(4-(5-chloro-1-(1-cyclopropyl-1H-pyrazol-4-yl)-1H-indazol-6-yl)piperidin-1-yl)-4-methyltetrahydrofuran-3-ol] |  | < 0.625
22 | CCCn1cc(-n2ncc3cc(Cl)c(C4CCN(C5(C)COC5)CC4)cc32)cn1 [Example 11.5] |  | 3.3
23 | N#CC1(c2ccc3cnn(-c4cnn(C5COC5)c4)c3c2)CC12CC2 (stereo not shown) [Example 1.3] |  | 80.1
24 | Cn1cc(-n2ncc3cc(Cl)c(C4CCN(C5CCOC5)CC4)cc32)cn1 (single isomer, unassigned) [Example 14.2-2, (R or S)-5-chloro-1-(1-methyl-1H-pyrazol-4-yl)-6-(1-(tetrahydrofuran-3-yl)piperidin-4-yl)-1H-indazole] | 2.8 | 
25 | Cc1cc2cnn(-c3cnn(C)c3)c2cc1C1CCN(C2COC2)CC1 [Example 6.1, 5-methyl-1-(1-methyl-1H-pyrazol-4-yl)-6-(1-(oxetan-3-yl)piperidin-4-yl)-1H-indazole] | 1.1 | 
26 | Cn1cc(-n2ncc3cc(Cl)c(C4CCN(S(C)(=O)=O)CC4)cc32)cn1 [Example 17.2] |  | 27.8
27 | CC(C)n1cc(-n2ncc3cc(Cl)c(C4CCN(C5(C)COC5)CC4)cc32)cn1 [Example 11.4] |  | 0.9
28 | CC1(N2CCC(c3cc4c(cnn4-c4cnn(S(=O)(=O)C5CC5)c4)cc3Cl)CC2)COC1 [Example 9.1, 5-chloro-1-(1-(cyclopropylsulfonyl)-1H-pyrazol-4-yl)-6-(1-(3-methyloxetan-3-yl)piperidin-4-yl)-1H-indazole] | 2.7 | 
29 | CC1(N2CCC(c3cc4c(cnn4-c4cnn(C5CC5)c4)cc3Cl)CC2)CCOC1 (single isomer, unassigned) [Example 15.3-2, (R or S)-5-chloro-1-(1-cyclopropyl-1H-pyrazol-4-yl)-6-(1-(3-methyltetrahydrofuran-3-yl)piperidin-4-yl)-1H-indazole] | 3.5 | 
30 | Cn1cc(-n2ncc3ccc([C@]4(C#N)CC45CC5)cc32)cn1 [Example 1.1, (S)-1-(1-(1-methyl-1H-pyrazol-4-yl)-1H-indazol-6-yl)spiro[2.2]pentane-1-carbonitrile] | 14.4 | 
31 | CCn1cc(-n2ncc3cc(Cl)c(C4CCN(C5COC5)CC4)cc32)cn1 [Example 2.7] |  | 2.3
32 | Cc1nnc(-n2ncc3cc(Cl)c(C4CCN(C5(C)COC5)CC4)cc32)o1 [Example 7.8] |  | 7.1
33 | Cc1cc2cnn(-c3cnn(C)c3)c2cc1C1CCN(C)C[C@H]1F (single isomer, unassigned) [Example 21.6-2, (R,R or S,S)-6-(3-fluoro-1-methylpiperidin-4-yl)-5-methyl-1-(1-methyl-1H-pyrazol-4-yl)-1H-indazole] |  | 3.8
34 | Cn1cc(-n2ncc3cc(Cl)c(C4CCN(C5COC5)CC4)cc32)nn1 [Example 2.11] |  | 11.3

Now from value to molecule, other results behind:

Row | IC50 [2] [nM] | Structure (SMILES) | IC50 [1] [nM]
35 | 14.5 | CNC(=O)N1CCC(c2cc3c(cnn3-c3cnn(C)c3)cc2Cl)CC1 [Example 17.1, 4-(5-chloro-1-(1-methyl-1H-pyrazol-4-yl)-1H-indazol-6-yl)-N-methylpiperidine-1-carboxamide] | 
36 | < 0.625 | Cn1cc(-n2ncc3cc(Cl)c(C4CCN(CCS(C)(=O)=O)CC4)cc32)cn1 [Example 16.2, 5-chloro-1-(1-methyl-1H-pyrazol-4-yl)-6-(1-(2-(methylsulfonyl)ethyl)piperidin-4-yl)-1H-indazole] | 
37 | 6.9 | Cn1cc(-n2ncc3c(F)c(Cl)c(C4CCN(C5COC5)CC4)cc32)cn1 [Example 35.9, 5-chloro-4-fluoro-1-(1-methyl-1H-pyrazol-4-yl)-6-(1-(oxetan-3-yl)piperidin-4-yl)-1H-indazole] | 
38 | 1.2 | C[C@H]1C[C@H](c2cc3c(cnn3-c3cnn(C)c3)cc2Cl)CCN1C1(C)COC1 [Example 23.5, 5-chloro-6-((2S,4R)-2-methyl-1-(3-methyloxetan-3-yl)piperidin-4-yl)-1-(1-methyl-1H-pyrazol-4-yl)-1H-indazole] | 
39 | < 0.625 | O=S1(=O)CCC(N2CCC(c3cc4c(cnn4-c4cnn(C56CC(C5)C6)c4)cc3Cl)CC2)C1 (racemic) [Example 38.2, (R and S)-3-(4-(1-(1-(bicyclo[1.1.1]pentan-1-yl)-1H-pyrazol-4-yl)-5-chloro-1H-indazol-6-yl)piperidin-1-yl)tetrahydrothiophene 1,1-dioxide] | 
40 | 190 | Cn1cc(-n2ncc3cc(Cl)c(C4CCN(C5COC5)C4)cc32)cn1 (single isomer, unassigned) [Example 30.5-1, (R or S)-5-chloro-1-(1-methyl-1H-pyrazol-4-yl)-6-(1-(oxetan-3-yl)pyrrolidin-3-yl)-1H-indazole] | 
41 | < 0.625 | O=S1(=O)CC(N2CCC(c3cc4c(cnn4-c4cnn(C56CC(C5)C6)c4)cc3Cl)CC2)C1 [Example 37.1, 3-(4-(1-(1-(bicyclo[1.1.1]pentan-1-yl)-1H-pyrazol-4-yl)-5-chloro-1H-indazol-6-yl)piperidin-1-yl)thietane 1,1-dioxide] | 
42 | 23.2 | Cn1cc(-n2ncc3cc(Cl)c(C4CCN(CC(F)F)CC4)cc32)cn1 [Example 18.2, 5-chloro-6-(1-(2,2-difluoroethyl)piperidin-4-yl)-1-(1-methyl-1H-pyrazol-4-yl)-1H-indazole] | 
43 | 797 | COC(=O)C12CC(c3cc4c(cnn4-c4cnn(C)c4)cc3Cl)(C1)C2 [Example 33.1, methyl 3-(5-chloro-1-(1-methyl-1H-pyrazol-4-yl)-1H-indazol-6-yl)bicyclo[1.1.1]pentane-1-carboxylate] | 

Where two headings read alike, the source gives them in different places.
